Legend:
HUVECs [1] = test: VEGF-induced scratch wound migration assay; assay type: cell-based, human; conditions: VEGF 50 ng/mL, compound 0.5 μg/mL, 8 hours
Experimental: (§1) For analyzing of the antagonistic response to VEGF, tube formation, scratch wound migration, and cell proliferation assays were performed after the exposure of HUVECs to 50 ng/mL VEGF-A (R&D Systems, Minneapolis, MN), which induced a significant angiogenic response. For the cell proliferation assays, cells were incubated overnight in endothelial basal media (EBM; Lonza, Walkersville, MD, USA) containing 0.5% FBS or supplemented with VEGF-A and/or VEGF inhibitors. The cells were washed with PBS and counted in 4 random microscope fields. The tube formation assay was performed by seeding cells on Matrigel-coated plates (BD Bioscience, Bedford, MA, USA) and incubating in EBM containing 0.5% FBS or supplemented with VEGF-A and/or VEGF inhibitors. After overnight incubation, tubule networks were quantified by measuring the tubule length in 4 random microscope fields. For the analysis of scratch wound migration, confluent cell monolayers grown on 6-well plates were scratched using a micropipette tip. […] Cell migration was observed by optical microscopy and quantified by measuring the number of cells that had migrated from the wound edges.
(§2) In (A) and (B), the number of cells was expressed as the fold change with respect to the number of cells seeded at day 0. […]

HUVECs [2] = test: VEGF-induced endothelial proliferation assay; assay type: cell-based, human; conditions: VEGF 50 ng/mL, compound 1 μg/mL
Experimental: as §1, §2

SMILES: Cc1ccc(Nc2nccc(N(C)c3ccc4c(C)n(C)nc4c3)n2)cc1S(N)(=O)=O [Pazopanib, 5-[[4-[(2,3-dimethyl-2H-indazol-6-yl)methylamino]-2-pyrimidinyl]amino]-2-methyl-benzenesulfonamide, reference compound]
- Effect on VEGF-induced increase in migration (HUVECs [1]): significantly inhibited
- Effect on VEGF-induced increase in endothelial proliferation (HUVECs [2]): significantly inhibited

From paper PMC4581874 (PLoS ONE, 2015)
